Values quoted from earlier work as cited in patent publication US9850293B2, “Targeting trastuzumab-resistant HER2+ breast cancer with a HER3-targeting nanoparticle” (priority 2014, dated 2017).

Conditions: T-DM1; untargeted Dox in patients; cited from earlier work

For `COc1cccc2c1C(=O)c1c(O)c3c(c(O)c1C2=O)C[C@@](O)(C(=O)CO)C[C@@H]3O[C@H]1C[C@H](N)[C@H](O)[C@H](C)O1` [Dox, doxorubicin, reference compound], the therapeutic dose required is listed as 1 to 5 mg/kg.
